Source: PubChem BioAssay
CAL PDZ FP-1 – blocks peptide binding to the human CAL PDZ domain. Q9HD26. purified CAL PDZ, TMR-peptide fluorescence polarization, 1 h. inhibition, % at 24.9 µM. hit rate 0.92% among 300,000;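 active means mean inhibition of at least 30% with at least half of replicates also reaching 30%; inconclusive means no clear call, values can overlap the other calls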;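 further: 0% = DMSO neutral control and 100% = excess unlabeled competitor peptide PRC23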
DYRK1A inh – Dyrk1A (rat) kinase inhibition. Q63470. ADP-Glo luminescence, NFATc1 peptide. inhibition, % at 12.5 µM. hit rate 0.43% among 310,000. AID 504441; in the data active means inhibition above about 50%;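 further: plate controls were vehicle with enzyme for no effect and no enzyme for full effect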
Yeast UUG start – alters start codon recognition fidelity in yeast; S. cerevisiae UUG-firefly luciferase reporter, luminescence/redox ratio; activity score, % at 18.7 µM; hit rate 0.13% among 350,000;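 active = replicate mean at a twofold rise or more, about +100% in these data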;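 also: firefly luciferase made from a UUG start codon reports start codon fidelity; reporter light over untreated wells divided by growth signal over untreated wells; some hits fall short of that in this replicate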
CDK5 p35 inh – inhibitors of human CDK5/p35 kinase | Q00535+Q15078 | Recombinant CDK5/p35, ADP-Glo luminescence, 60 min | inhibition, % at 10 µM | hit rate 0.01% among 330,000 | AID 488839;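 active means highest replicate inhibition of at least 50% and at least 75% of replicates reaching 50%; inconclusive means only one of the two criteria met; inactive means both criteria failed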;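 further: plate controls were DMSO neutral control for no effect and GW8510 at 10 µM for full effect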
CAL PDZ FP-2 – human CAL PDZ-peptide interaction inhibition. hit rate 0.02% among 330,000. purified CAL PDZ, TMR-peptide fluorescence polarization, 1 h. inhibition, % at 20 µM. AID 504414;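 active means highest replicate inhibition of at least 40%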;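 further: plate controls were DMSO neutral control wells for no effect and unlabeled competitor peptide control wells for full effect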
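material = purified tagged CAL PDZ domain construct (CerCALP) | buffer or medium = sodium phosphate/NaCl buffer pH 7.4 with TCEP, IgG, Thesit | reagent = TMR-labelled reporter peptide T*-PRC34 bound in PDZ groove | incubation = 1 h room-temperature incubation prior to read | measured by = fluorescence polarization (mP) | evaluation = percent inhibition from loss of millipolarization | control set = unlabelled peptide and DMSO controls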
dFosB activator – mouse delta FosB homodimer activation; P13346; purified delta FosB, TAMRA-CDK5 oligo fluorescence polarization; percent of positive-control signal above neutral wells; activation, % at 25 µM; hit rate 0.99% among 340,000; AID 493131;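 active means mean activation above about 17%, with every replicate also reaching it, limit read from the data, passing the limit was not always enough; inconclusive means only one of the two conditions met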
An asterisk follows results filed as active; ? = inconclusive; · = no result given; + = active, no number. Sampled rows, rich in hits. Any-hit rate of the full collection: about 1.7%.

| entry | canonical_smiles | CAL PDZ FP-2 | CAL PDZ FP-1 | dFosB activator |
| --- | --- | --- | --- | --- |
| 1 | COc1cc(S(=O)(=O)Nc2cccc3cn[nH]c23)c(OC)cc1Cl | -0.6 | 95.1* | -10.9 |
| 2 | C[C@H]1CN([C@@H](C)CO)C(=O)c2cc(-c3ccc(F)cc3)cnc2O[C@@H]1CN(C)C(=O)c1ccc(F)cc1 | · | · | · |
| 3 | O=C(O)CSCC(=O)N(Cc1ccccc1)c1nc(-c2ccccc2)c(-c2ccccc2)s1 | -1.2 | 44.2* | -32.8 |
| 4 | CCOC(=O)c1sc(N(Cc2ccccc2)C(=O)CCl)nc1C | -3.4 | -5.3 | -11.6 |
| 5 | O=C(O)CSc1cc(NS(=O)(=O)c2ccc(Br)cc2)c2ccccc2c1O | 42.3* | 13.4 | -13.4 |
| 6 | CCOC(=O)C1=C(C)Nc2nc3ccccc3n2C1c1ccc(O)cc1 (configuration not stated) | -1.6 | -5.2 | -0.1 |
| 7 | CCOC(=O)c1ccccc1-n1c(C)cc(C2N=C(N)Nc3nc4ccccc4n32)c1C (configuration not stated) | -3.6 | · | 45.3* |
| 8 | CCC(=O)N1CCCc2cc(S(=O)(=O)N3CCN(C4CCCCC4)CC3)ccc21 | · | 41.8* | -3.7 |

| entry | Yeast UUG start | DYRK1A inh | CDK5 p35 inh |
| --- | --- | --- | --- |
| 1 | -15.6 | 1.4 | -3.7 |
| 2 | 10.6 | · | · |
| 3 | -8.9 | 2.8 | 0.2 |
| 4 | -16.7 | -0.1 | 2.2 |
| 5 | -10.5 | -0.8 | 17.9 |
| 6 | -2.7 | -8.1 | -2.6 |
| 7 | -22.3 | -0.5 | 0.0 |
| 8 | -6.6 | 13.6 | 1.0 |

(more compounds)
| entry | canonical_smiles | CAL PDZ FP-2 | CAL PDZ FP-1 | dFosB activator |
| --- | --- | --- | --- | --- |
| 9 | COc1ccc(C2C(C(=O)N3CCOCC3)CCC(=O)N2c2ccc(OC)cc2)cc1 (configuration not stated) | -1.0 | 108.2* | 4.0 |
| 10 | CC1(C)CC(=O)N(c2cccc(Cl)c2)C(=O)C1 | 0.1 | -5.0 | 0.1 |
| 11 | CC1(C)CC(=O)N(c2ccc(Cl)cc2Cl)C(=O)C1 | 0.5 | 61.0* | 8.2 |
| 12 | Cc1ccccc1S(=O)(=O)NCC[C@H]1CC[C@H](NC(=O)Nc2cccc(Cl)c2)[C@H](CO)O1 | · | · | · |
| 13 | COc1ccc(OC)c(NC(=O)C2CCCN(S(=O)(=O)c3cccc4nsnc34)C2)c1 (configuration not stated) | 1.3 | 0.5 | -5.8 |
| 14 | COc1cc(NC(=O)C2CCCN(S(=O)(=O)c3cccc4nsnc34)C2)cc(OC)c1 (configuration not stated) | -0.8 | 57.8* | 1.3 |
| 15 | c1ccc(CCC2CCCCN2Cc2cn[nH]c2-c2cc3ccccc3o2)nc1 (configuration not stated) | -0.7 | 101.2* | -11.4 |
| 16 | O=C(O)CSc1nnc(-c2cccc(S(=O)(=O)N3CCCCC3)c2)o1 | 0.5 | · | 6.7 |

| entry | Yeast UUG start | DYRK1A inh | CDK5 p35 inh |
| --- | --- | --- | --- |
| 9 | 3.3 | 4.9 | 0.4 |
| 10 | 0.3 | 0.4 | -0.1 |
| 11 | -7.8 | -3.9 | -2.5 |
| 12 | -5.3 | · | · |
| 13 | -3.7 | 5.0 | -0.4 |
| 14 | 5.0 | 1.3 | -1.1 |
| 15 | -8.3 | -1.0 | -1.9 |
| 16 | · | -6.0 | 0.2 |

Following part:
| entry | canonical_smiles | CAL PDZ FP-2 | CAL PDZ FP-1 | dFosB activator |
| --- | --- | --- | --- | --- |
| 17 | N#Cc1ccc(CSc2nnc(-c3cccc(S(=O)(=O)N4CCCCC4)c3)o2)cc1 | -1.5 | 44.3* | -6.2 |
| 18 | CCCN(CC(=O)Nc1ccccc1OC)C(=O)c1ccccn1 | -0.3 | 74.1* | 5.0 |
| 19 | CCCN(CC(=O)Nc1ccccc1OC)C(=O)CSC(=S)N1CCCC1 | -0.2 | 60.2* | 1.2 |
| 20 | CCCN(CC(=O)Nc1cc(Cl)ccc1Cl)C(=O)c1ccccn1 | -6.2 | 6.3 | -10.5 |
| 21 | CCCN(CC(=O)Nc1ccccc1OC)C(=O)CC1CCCC1 | 1.6 | 0.0 | 2.2 |
| 22 | C[C@@H](NC(=O)Cn1cnc2c(OCc3ccccc3)ncnc21)c1cccc2ccccc12 | -0.4 | -4.7 | 26.0* |
| 23 | Cc1c(C(=O)NNC(=O)c2csc(N3CCOCC3)n2)cccc1[N+](=O)[O-] | -0.8 | -1.3 | 6.4 |
| 24 | O=C(NNC(=O)c1ccccc1[N+](=O)[O-])c1csc(N2CCOCC2)n1 | -2.3 | 48.8* | 3.3 |

| entry | Yeast UUG start | DYRK1A inh | CDK5 p35 inh |
| --- | --- | --- | --- |
| 17 | -3.6 | -2.7 | 0.9 |
| 18 | -18.1 | 1.6 | -1.6 |
| 19 | -8.5 | · | -0.6 |
| 20 | 5.4 | -2.1 | 0.6 |
| 21 | -4.3 | -3.3 | 0.5 |
| 22 | -7.0 | -2.7 | -1.9 |
| 23 | · | · | 0.2 |
| 24 | -20.0 | 7.5 | 0.5 |

Other structures.
| entry | canonical_smiles | CAL PDZ FP-2 | CAL PDZ FP-1 | dFosB activator |
| --- | --- | --- | --- | --- |
| 25 | C[C@@H]1CCCCO[C@@H](CN(C)C(=O)c2ccccc2)[C@H](C)CN([C@@H](C)CO)C(=O)c2cc(NC(=O)C3CCCCC3)ccc2O1 | · | · | · |
| 26 | O=C(c1cccc(C(F)(F)F)c1)C1CCCN(C(=O)CCn2cnnn2)C1 (configuration not stated) | -4.7 | 52.5* | -8.5 |
| 27 | Cc1noc(C)c1NC(=O)N(C)C[C@@H]1Oc2ccc(NS(=O)(=O)c3cn(C)cn3)cc2C(=O)N([C@H](C)CO)C[C@@H]1C | · | · | · |
| 28 | S=C(Nc1ccc(-c2nc3ccccc3[nH]2)cc1)Nc1cccnc1 | -2.0 | 42.7* | ? |
| 29 | COc1ccccc1NC(=S)NNC(=O)c1ccc(Cl)cc1Cl | -1.1 | 48.7* | -0.5 |
| 30 | CCOc1ccccc1CNC(=O)CN1C(=O)CSc2ccc(S(=O)(=O)N3CCOCC3)cc21 | -1.0 | + | -7.5 |
| 31 | C[C@H]1CN([C@@H](C)CO)C(=O)CCCn2cc(nn2)CO[C@@H]1CN(C)Cc1cccc(C(=O)O)c1 | · | · | · |
| 32 | c1cc2c(cc1C1CCCCC1)c1c3n2CCCNC3CCC1 (configuration not stated) | -1.1 | -2.9 | 25.4* |

| entry | Yeast UUG start | DYRK1A inh | CDK5 p35 inh |
| --- | --- | --- | --- |
| 25 | 7.9 | · | · |
| 26 | 0.9 | -4.2 | -1.1 |
| 27 | -10.4 | · | · |
| 28 | -26.5 | 15.2 | 3.9 |
| 29 | -36.2 | 4.7 | 2.4 |
| 30 | 14.2 | 2.4 | 0.8 |
| 31 | 4.0 | · | · |
| 32 | · | 4.9 | 0.5 |

Compound profiles, as listed above. Screens in order: CAL PDZ FP-2	CAL PDZ FP-1	dFosB activator	Yeast UUG start	DYRK1A inh	CDK5 p35 inh
CCOC(=O)C1=C(C)Nc2nc3ccccc3n2C1c1ccc(O)cc1 (configuration not stated) as listed: -1.6	-5.2	-0.1	-2.7	-8.1	-2.6
CCOC(=O)c1sc(N(Cc2ccccc2)C(=O)CCl)nc1C as listed: -3.4	-5.3	-11.6	-16.7	-0.1	2.2
c1ccc(CCC2CCCCN2Cc2cn[nH]c2-c2cc3ccccc3o2)nc1 (configuration not stated) as listed: -0.7	101.2*	-11.4	-8.3	-1.0	-1.9
O=C(O)CSCC(=O)N(Cc1ccccc1)c1nc(-c2ccccc2)c(-c2ccccc2)s1 as listed: -1.2	44.2*	-32.8	-8.9	2.8	0.2

More entries.
| entry | canonical_smiles | CAL PDZ FP-2 | CAL PDZ FP-1 | dFosB activator |
| --- | --- | --- | --- | --- |
| 33 | COc1cccc(/C=N/NC(=O)c2cnccn2)c1O | -2.2 | 90.4* | 5.6 |
| 34 | COc1cccc(/C=N/NC(=O)c2cc3cc([N+](=O)[O-])ccc3s2)c1O | -0.8 | · | 41.0* |
| 35 | COc1ccc(/C=N/NC(=O)c2cnccn2)c(OC)c1OC | -1.3 | -3.9 | 3.4 |
| 36 | COc1cccc(/C=N/NC(=O)C(=O)N/N=C/c2cccc(OC)c2O)c1O | 0.0 | -0.3 | 11.0 |
| 37 | COc1ccc(-n2nc(C(=O)NCC(=O)N(C)Cc3ccccc3)c3ccccc3c2=O)cc1 | -2.0 | 38.1* | -29.8 |
| 38 | COc1ccc(-n2nc(C(=O)NCC(=O)O)c3ccccc3c2=O)cc1 | 0.2 | 0.6 | 5.4 |
| 39 | CN1CCN(C(=O)C[C@@H]2CC[C@@H]3[C@@H](COc4ccc(NC(=O)C5CCCCC5)cc4C(=O)N3C)O2)CC1 | · | · | · |
| 40 | N#Cc1ccc(-c2ccc3c(c2)[C@H]2[C@H](CCN2S(=O)(=O)c2ccccc2F)[C@@H](CO)N3)cc1 | · | · | · |

| entry | Yeast UUG start | DYRK1A inh | CDK5 p35 inh |
| --- | --- | --- | --- |
| 33 | -23.5 | -8.2 | 0.6 |
| 34 | -16.6 | 0.4 | 0.3 |
| 35 | · | -2.9 | -0.2 |
| 36 | · | -4.2 | -0.4 |
| 37 | -4.3 | 7.3 | 1.6 |
| 38 | -14.3 | 1.3 | -2.6 |
| 39 | -11.3 | · | · |
| 40 | -10.7 | · | · |

Following part:
| entry | canonical_smiles | CAL PDZ FP-2 | CAL PDZ FP-1 | dFosB activator |
| --- | --- | --- | --- | --- |
| 41 | O=C(C[C@H]1CC[C@H]2[C@@H](COC[C@H](O)CN2Cc2cccc(-c3ccncc3)c2)O1)N1CCCCC1 | · | · | · |
| 42 | COc1ccc(-n2c(C)c(C(C)=O)c3cc(OCC(N)=O)ccc32)cc1 | 1.5 | 37.6* | 4.6 |
| 43 | Cc1c(C(=O)N2CCN(S(=O)(=O)c3ccccc3)CC2)oc2ccc(Br)cc12 | -2.1 | 32.1* | 2.5 |
| 44 | Cc1c(C(=O)N2CCCCC2)oc2ccc(Br)cc12 | -1.1 | 13.5 | -19.8 |
| 45 | Cc1onc(-c2ccccc2)c1C(=O)OCC(=O)c1ccc[nH]1 | · | · | · |
| 46 | CC(=O)c1c(C)[nH]c(C(=O)COC(=O)c2c(-c3ccccc3)noc2C)c1C | -0.2 | 64.2* | -5.9 |

| entry | Yeast UUG start | DYRK1A inh | CDK5 p35 inh |
| --- | --- | --- | --- |
| 41 | -4.8 | · | · |
| 42 | -7.2 | · | 1.2 |
| 43 | -2.1 | 0.5 | -0.1 |
| 44 | · | 8.7 | 0.2 |
| 45 | -10.2 | · | · |
| 46 | -15.6 | -2.1 | -0.1 |
